Target: CutC (Oleidesulfovibrio alaskensis, UniProt Q30W70)
Conditions: 10 mM compound

Protein sequences, listed by entry. Tags and fused reporters are not part of them. Lines headed by an entry give the natural chain unless they say otherwise; changes in a name come on top.
UniProt Q30W70: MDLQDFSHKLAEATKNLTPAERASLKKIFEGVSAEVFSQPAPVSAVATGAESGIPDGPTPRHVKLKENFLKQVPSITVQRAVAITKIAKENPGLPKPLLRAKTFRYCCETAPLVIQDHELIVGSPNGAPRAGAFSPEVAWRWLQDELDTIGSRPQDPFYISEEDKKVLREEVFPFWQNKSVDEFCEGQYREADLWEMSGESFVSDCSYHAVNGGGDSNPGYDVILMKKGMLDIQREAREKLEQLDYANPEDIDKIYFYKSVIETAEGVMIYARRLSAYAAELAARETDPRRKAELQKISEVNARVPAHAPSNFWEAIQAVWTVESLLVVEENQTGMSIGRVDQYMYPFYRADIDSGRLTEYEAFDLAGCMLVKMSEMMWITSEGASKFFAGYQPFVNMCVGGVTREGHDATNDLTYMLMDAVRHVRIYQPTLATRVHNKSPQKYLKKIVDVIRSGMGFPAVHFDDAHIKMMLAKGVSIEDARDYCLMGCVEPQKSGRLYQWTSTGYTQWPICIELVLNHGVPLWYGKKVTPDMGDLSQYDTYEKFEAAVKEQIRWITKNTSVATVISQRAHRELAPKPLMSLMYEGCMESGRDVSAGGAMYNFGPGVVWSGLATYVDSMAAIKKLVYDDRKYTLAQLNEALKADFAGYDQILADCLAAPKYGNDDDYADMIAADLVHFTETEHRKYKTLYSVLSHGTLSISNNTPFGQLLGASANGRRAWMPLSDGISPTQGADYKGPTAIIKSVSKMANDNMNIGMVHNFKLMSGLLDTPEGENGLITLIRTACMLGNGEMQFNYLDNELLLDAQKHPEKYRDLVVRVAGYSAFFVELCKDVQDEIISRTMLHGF

## CN1CCCC(=O)C1
  inhibition at 10 mM: 20% inhibition at 10 mM
